US20240246946A1, “MODULATORS OF TREX1” (Constellation Pharmaceuticals, Inc., priority 2021, published 2024)

Protein sequences, listed by entry. Tags and fused reporters are not part of them.
UniProt Q9NSU2, whole entry: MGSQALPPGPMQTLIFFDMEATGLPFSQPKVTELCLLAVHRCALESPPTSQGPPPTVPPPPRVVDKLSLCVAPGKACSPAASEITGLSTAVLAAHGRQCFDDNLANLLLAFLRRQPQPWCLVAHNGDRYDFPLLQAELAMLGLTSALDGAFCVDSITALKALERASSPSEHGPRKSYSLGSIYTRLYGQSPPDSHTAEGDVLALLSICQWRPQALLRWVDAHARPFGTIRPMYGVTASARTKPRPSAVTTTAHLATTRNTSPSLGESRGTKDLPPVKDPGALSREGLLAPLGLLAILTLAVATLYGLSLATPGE
UniProt Q91XB0, whole entry: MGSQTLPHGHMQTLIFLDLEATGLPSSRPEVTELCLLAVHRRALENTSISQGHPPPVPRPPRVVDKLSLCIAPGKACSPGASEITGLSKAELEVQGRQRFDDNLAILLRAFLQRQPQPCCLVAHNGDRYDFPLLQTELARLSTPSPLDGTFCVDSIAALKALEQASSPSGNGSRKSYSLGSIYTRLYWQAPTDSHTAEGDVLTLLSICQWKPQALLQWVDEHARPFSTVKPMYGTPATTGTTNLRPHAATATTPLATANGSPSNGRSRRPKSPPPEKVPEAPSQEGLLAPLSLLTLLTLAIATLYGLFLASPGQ
UniProt Q9BQ50, whole entry: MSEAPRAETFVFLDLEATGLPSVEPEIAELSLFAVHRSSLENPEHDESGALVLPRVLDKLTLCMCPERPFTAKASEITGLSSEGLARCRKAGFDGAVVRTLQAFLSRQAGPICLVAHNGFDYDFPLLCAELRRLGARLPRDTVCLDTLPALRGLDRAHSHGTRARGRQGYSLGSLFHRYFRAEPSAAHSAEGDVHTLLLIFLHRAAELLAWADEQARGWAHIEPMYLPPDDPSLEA

Legend:
full length human TREX1 [1] = molecular target: T1, full length human TREX1 (Homo sapiens, UniProt Q9NSU2); assay: hTREX1 Biochemical Assay (fluorescence, dsDNA substrate degradation); conditions: read-out: hTREX1 IC50
full length mouse TREX1 = full length mouse TREX1 (Mus musculus, UniProt Q91XB0); assay: mTREX1 Biochemical Assay (fluorescence, dsDNA substrate degradation); conditions: read-out: mTREX1 IC50
[2] = molecular target: human TREX2 (residues M44-A279) (Homo sapiens, UniProt Q9BQ50); assay: hTREX2 Biochemical Assay (fluorescence, dsDNA substrate degradation); conditions: biochemical selectivity for hTREX1 vs hTREX2
Experimental: Degradation of the dsDNA liberates free fluorophore to produce a fluorescent signal. Specifically, 7.5 μL of N-terminally His-Tev tagged human TREX2 (residues M44-A279, expressed in E. coli and purified in house) in reaction buffer (50 mM Tris, 150 mM NaCl, 2 mM DTT, 0.1 mg/mL BSA, 0.01% (w/v) Tween-20, 5 mM MgCl2, pH 7.4) was added to a 384-well Black ProxiPlate Plus (PerkinElmer) which already contained compound (150 nL) at varying concentrations as a 10 point dose-response in DMSO. The plate was incubated at 25° C. for 4 hours. Reactions were initiated by adding 7.5 μL of dsDNA substrate (Strand A: 5′ TEX615/GCT AGG CAG 3′; Strand B: 5′ CTG CCT AGC/IAbRQSp (IDT)) in reaction buffer. Final concentrations were 50 pM TREX2, 60 nM dsDNA substrate in reaction buffer with 1.0% DMSO (v/v). After 18 hours at 25° C., reactions were quenched by the addition of 2 μL of 500 mM EDTA. Final concentrations in the quenched reaction mixture were 44 pM TREX2, 53 nM DNA and 59 mM EDTA in a volume of 17 μL. After a 5-minute incubation at room temperature, plates were read in an EnVision plate reader (PerkinElmer) measuring fluorescence at 615 nm following excitation w/570 nm light. IC50 values were calculated by comparing the measured fluorescence at 615 nm relative to control wells pre-quenched w/stop buffer (100% inhibition) and no inhibitor (0% inhibition) controls as using non-linear least square four parameter fits and either Genedata or GraphPad Prism (GraphPad Software, Inc.).

full length human TREX1 [3] = molecular target: T1, full length human TREX1; assay: TREX1 Kinetics Assays (TR-FRET association and dissociation, global fit with Kintek Explorer)

Compound | IC50 (full length human TREX1 [1]) [µM] | IC50 (full length mouse TREX1) [µM] | hTREX1 vs hTREX2 selectivity [2] | residence time (full length human TREX1 [3]; hTREX1, TR-FRET kinetics) [min] | koff (full length human TREX1 [3]; hTREX1, TR-FRET, 25° C., global fit) [s⁻¹]
CC(c1nc(C(=O)Nc2cnoc2)c(O)c(=O)n1C)C(c1cc(F)ccc1C#N)c1cn(C)nc1C#N (stereo not drawn) | > 0.01 | > 0.01 |  |  | 
COC(C)(C)Cn1cc(C(c2ccccc2Cl)C(C)c2nc(C(=O)Nc3cnoc3)c(O)c(=O)n2C)cn1 (single isomer, unassigned) | > 0.01 | > 0.01 |  |  | 
CC(c1nc(C(=O)Nc2cnoc2)c(O)c(=O)n1C)C(c1cnn(C)c1)c1cc(C(=O)N(C)C)ccc1C#N (single isomer, unassigned) [Example 75 D1E1] | < 0.001 | 0.001 to 0.01 |  |  | 
CC(c1nc(C(=O)Nc2cnoc2)c(O)c(=O)n1C)C(c1cnn(C)c1)c1cc(C(=O)N(C)C)ccc1C#N (single isomer, unassigned) [Example 75 D1E2] | > 0.01 | > 0.01 |  |  | 
CC(c1nc(C(=O)Nc2cnoc2)c(O)c(=O)n1C)C(c1cnn(C)c1)c1cc(C(=O)N(C)C)ccc1C#N (single isomer, unassigned) [Example 75 D2E1] | > 0.01 | > 0.01 |  |  | 
CC(c1nc(C(=O)Nc2cnoc2)c(O)c(=O)n1C)C(c1cnn(C)c1)c1cc(C(=O)N(C)C)ccc1C#N (single isomer, unassigned) [Example 75 D2E2] | > 0.01 | > 0.01 |  |  | 
CC(c1nc(C(=O)Nc2cnoc2)c(O)c(=O)n1C)C(c1ccccc1C#N)c1cn(C)nc1C(F)(F)F (single isomer, unassigned) [Example 90 D1E1] | < 0.001 | 0.001 to 0.01 | C (C = >50 fold selective for hTREX1) |  | 
CC(c1nc(C(=O)Nc2cnoc2)c(O)c(=O)n1C)C(c1ccccc1C#N)c1cn(C)nc1C(F)(F)F (single isomer, unassigned) [Example 90 D1E2] | > 0.01 | > 0.01 | A (A = <25 fold selective for hTREX1) |  | 
CC(c1nc(C(=O)Nc2cnoc2)c(O)c(=O)n1C)C(c1ccccc1C#N)c1cn(C)nc1C(F)(F)F (single isomer, unassigned) [Example 90 D2E1] | > 0.01 | > 0.01 | B (B = 25 to 50-fold selective for hTREX1) |  | 
CC(c1nc(C(=O)Nc2cnoc2)c(O)c(=O)n1C)C(c1ccccc1C#N)c1cn(C)nc1C(F)(F)F (single isomer, unassigned) [Example 90 D2E2] | 0.001 to 0.01 | > 0.01 | B (B = 25 to 50-fold selective for hTREX1) |  | 
Cc1cc(C(c2cc(F)ccc2Cl)C(C)c2nc(C(=O)Nc3cnoc3)c(O)c(=O)n2C)nn1C (single isomer, unassigned) [Example 114 D1E1] | 0.001 to 0.01 | > 0.01 | B (B = 25 to 50-fold selective for hTREX1) |  | 
Cc1cc(C(c2cc(F)ccc2Cl)C(C)c2nc(C(=O)Nc3cnoc3)c(O)c(=O)n2C)nn1C (single isomer, unassigned) [Example 114 D2E1] | 0.001 to 0.01 | > 0.01 | B (B = 25 to 50-fold selective for hTREX1) |  | 
CC(c1nc(C(=O)Nc2cnoc2)c(O)c(=O)n1C)C(c1ccccc1C#N)c1cn(C(C)C)nc1F (single isomer, unassigned) [Example 128 D1E1] | < 0.001 | < 0.001 | B (B = 25 to 50-fold selective for hTREX1) |  | 
CC(c1nc(C(=O)Nc2cnoc2)c(O)c(=O)n1C)C(c1ccccc1C#N)c1cn(C(C)C)nc1F (single isomer, unassigned) [Example 128 D1E2] | > 0.01 | > 0.01 | A (A = <25 fold selective for hTREX1) |  | 
Cn1cc(C(c2ccccc2C#N)C(F)(F)c2nc(C(=O)Nc3cnoc3)c(O)c(=O)n2C)cn1 (single isomer, unassigned) [Example 148 D1] | 0.001 to 0.01 | > 0.01 | C (C = >50 fold selective for hTREX1) |  | 
Cn1cc(C(c2ccccc2C#N)C(F)(F)c2nc(C(=O)Nc3cnoc3)c(O)c(=O)n2C)cn1 (single isomer, unassigned) [Example 148 D2] | > 0.01 | > 0.01 |  |  | 
CC(c1nc(C(=O)Nc2cnoc2)c(O)c(=O)n1C(C)C)C(c1cnn(C)c1)c1ccccc1C#N (single isomer, unassigned) [Example 150 D1E1] | > 0.01 | > 0.01 | A (A = <25 fold selective for hTREX1) |  | 
CC(c1nc(C(=O)Nc2cnoc2)c(O)c(=O)n1C(C)C)C(c1cnn(C)c1)c1ccccc1C#N (single isomer, unassigned) [Example 150 D1E2] | < 0.001 | 0.001 to 0.01 | C (C = >50 fold selective for hTREX1) | 182 | 9.13e-05
CC(c1nc(C(=O)Nc2cnoc2)c(O)c(=O)n1C(C)C)C(c1cnn(C)c1)c1ccccc1C#N (single isomer, unassigned) [Example 150 D2E1] | > 0.01 | > 0.01 | A (A = <25 fold selective for hTREX1) |  | 
CC(c1nc(C(=O)Nc2cnoc2)c(O)c(=O)n1C(C)C)C(c1cnn(C)c1)c1ccccc1C#N (single isomer, unassigned) [Example 150 D2E2] | > 0.01 | > 0.01 |  |  | 

Now from value to compound:

IC50 (full length human TREX1 [1]) [µM] | IC50 (full length mouse TREX1) [µM] | hTREX1 vs hTREX2 selectivity [2] | residence time (full length human TREX1 [3]; hTREX1, TR-FRET kinetics) [min] | koff (full length human TREX1 [3]; hTREX1, TR-FRET, 25° C., global fit) [s⁻¹] | Compound
< 0.001 | 0.001 to 0.01 | C (C = >50 fold selective for hTREX1) |  |  | COCCn1cc(C(c2cc(F)ccc2Cl)C(C)c2nc(C(=O)Nc3cnoc3)c(O)c(=O)n2C)c(C)n1 (single isomer, unassigned) [Example 107 D1E1]
> 0.01 | > 0.01 | A (A = <25 fold selective for hTREX1) |  |  | COCCn1cc(C(c2cc(F)ccc2Cl)C(C)c2nc(C(=O)Nc3cnoc3)c(O)c(=O)n2C)c(C)n1 (single isomer, unassigned) [Example 107 D1E2]
> 0.01 | > 0.01 | A (A = <25 fold selective for hTREX1) |  |  | COCCn1cc(C(c2cc(F)ccc2Cl)C(C)c2nc(C(=O)Nc3cnoc3)c(O)c(=O)n2C)c(C)n1 (single isomer, unassigned) [Example 107 D2E1]
> 0.01 | > 0.01 |  |  |  | COCCn1cc(C(c2cc(F)ccc2Cl)C(C)c2nc(C(=O)Nc3cnoc3)c(O)c(=O)n2C)c(C)n1 (single isomer, unassigned) [Example 107 D2E2]
> 0.01 | > 0.01 | A (A = <25 fold selective for hTREX1) |  |  | Cc1cc(C(c2cc(F)ccc2Cl)C(C)c2nc(C(=O)Nc3cnoc3)c(O)c(=O)n2C)nn1C (single isomer, unassigned) [Example 114 D1E2]
> 0.01 | > 0.01 |  |  |  | Cc1cc(C(c2cc(F)ccc2Cl)C(C)c2nc(C(=O)Nc3cnoc3)c(O)c(=O)n2C)nn1C (single isomer, unassigned) [Example 114 D2E2]
0.001 to 0.01 | > 0.01 | A (A = <25 fold selective for hTREX1) |  |  | Cc1ncc(C(c2cc(F)ccc2Cl)C(C)c2nc(C(=O)Nc3cnoc3)c(O)c(=O)n2C)nc1C (single isomer, unassigned) [Example 126 D1E1]
< 0.001 | 0.001 to 0.01 | C (C = >50 fold selective for hTREX1) |  |  | Cc1ncc(C(c2cc(F)ccc2Cl)C(C)c2nc(C(=O)Nc3cnoc3)c(O)c(=O)n2C)nc1C (single isomer, unassigned) [Example 126 D1E2]
0.001 to 0.01 | > 0.01 | A (A = <25 fold selective for hTREX1) |  |  | Cc1ncc(C(c2cc(F)ccc2Cl)C(C)c2nc(C(=O)Nc3cnoc3)c(O)c(=O)n2C)nc1C (single isomer, unassigned) [Example 126 D2E1]
> 0.01 | > 0.01 |  |  |  | Cc1ncc(C(c2cc(F)ccc2Cl)C(C)c2nc(C(=O)Nc3cnoc3)c(O)c(=O)n2C)nc1C (single isomer, unassigned) [Example 126 D2E2]
> 0.01 | > 0.01 | A (A = <25 fold selective for hTREX1) |  |  | CC(c1nc(C(=O)Nc2cnoc2)c(O)c(=O)n1C)C(c1cc(F)ccc1C#N)c1cn(C)nc1F (single isomer, unassigned) [Example 129 D1E1]
< 0.001 | < 0.001 | C (C = >50 fold selective for hTREX1) |  |  | CC(c1nc(C(=O)Nc2cnoc2)c(O)c(=O)n1C)C(c1cc(F)ccc1C#N)c1cn(C)nc1F (single isomer, unassigned) [Example 129 D1E2]
